The record followed here is ChEMBL document CHEMBL3632481, “Applications of Fluorine in Medicinal Chemistry” (J Med Chem, 2015).

The term Ki denotes the dissociation constant of the complex between target and ligand, obtained from inhibition or displacement.

This test has as its target Protease (Human immunodeficiency virus 1, UniProt Q9YQ12). In words: Inhibition of HIV1 protease assessed as cleavage of Lys-Ala-Arg-Val-Nle-NphGlu-Ala-Nle-NH2.

In the case of `CC(C)(C)NC(=O)[C@@H]1CN(Cc2cccnc2)CCN1C[C@@H](O)C[C@@H](Cc1ccccc1)C(=O)N[C@H]1c2ccccc2C[C@H]1O`, the Ki was found to be 1.9 nM.
Turning to `CC(C)(C)NC(=O)[C@@H]1CN(Cc2cccnc2)CCN1C[C@H](O)C[C@@H](Cc1ccccc1)C(=O)N[C@H]1c2ccccc2C[C@H]1O`, the Ki worked out at 160 nM.
